Measured values reported in patent publication US20230119479A1, “A HISTONE DEACETYLASE INHIBITOR HAVING A NITROGEN-CONTAINING AROMATIC HETEROCYCLYL GROUP” (SHIONOGI & CO., LTD., priority 2019, published 2023).

Protein sequences, listed by entry. Tags and fused reporters are not part of them.
UniProt Q92769, whole entry: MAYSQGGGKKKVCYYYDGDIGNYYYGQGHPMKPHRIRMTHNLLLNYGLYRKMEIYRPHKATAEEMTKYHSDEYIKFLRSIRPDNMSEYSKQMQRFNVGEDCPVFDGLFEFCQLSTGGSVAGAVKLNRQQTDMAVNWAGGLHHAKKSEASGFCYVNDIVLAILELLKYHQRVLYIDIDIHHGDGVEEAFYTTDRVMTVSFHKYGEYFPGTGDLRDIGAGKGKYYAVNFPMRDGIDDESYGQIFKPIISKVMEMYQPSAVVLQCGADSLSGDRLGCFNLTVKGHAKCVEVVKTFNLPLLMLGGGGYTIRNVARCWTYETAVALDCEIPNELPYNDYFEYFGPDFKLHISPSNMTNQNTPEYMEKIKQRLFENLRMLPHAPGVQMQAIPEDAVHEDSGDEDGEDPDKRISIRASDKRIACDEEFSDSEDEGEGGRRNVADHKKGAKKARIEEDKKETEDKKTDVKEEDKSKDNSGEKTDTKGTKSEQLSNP

Molecular target: HDAC2 Human recombinant C-terminal FLAG-tag (Homo sapiens, UniProt Q92769)
Test: Measurement of HDAC2 enzyme inhibitory activity (HTRF)
Settings: read-out: HDAC2 IC50; recombinant HDAC2, H3K9ac peptide, 3 hours room temperature
Experimental: Test Example 1: Measurement of HDAC2 Enzyme Inhibitory Activity
The HDAC2 enzyme inhibitory activity was measured by the method described in the following test example.
To each well of a 384-well plate (Corning, 4514), DMSO solution of the test compound was dispensed at 50 nL/well from a final concentration of 99 μM to 8 points (n=2) in the 3-fold dilution series using Echo555 (Beckman Coulter). 2.5 μl of 0.005 mg/mL recombinant enzyme HDAC2 (HDAC2 Human recombinant C-terminal FLAG-tag, BPS Bioscience, 50052) was added to each well, 2.5 μl of 0.6 μM H3K9ac peptide (Lys(Ac)9-Histone H3 (1-21)-GGK(Biotin), AnaSpec, 64361) was added, mixed, and reacted in a wet box at room temperature for 3 hours. […] After the reaction, 5 μL of 10 μM SAHA (suberoylanilide hydroxamic acid) as a reaction terminator and the 5 μL of a mixture of 2.5 ng of H3K9me0 antibody (ActiveMotif, 61399) labeled in-house with europium cryptate (Cisbio, 65EUSABA) and 125 nM streptavidin-XL665 (Cisbio, 610SAXLA) as an HTRF (time-resolved fluorescence) reagent were added to each well, mixed, and allowed to stand in a wet box at room temperature for reaction. […] After reacting for 2 hours or more, HTRF was measured using a multi-plate reader such as SpectraMax Paradigm (MOLECULAR DEVICE) or RUBYstar (BMG LABTECH). […]

N#Cc1cnc(C(=O)Nc2cc(-c3ccc(F)nc3)ccc2N)cn1
IC50: 450 nM
